Tested on: Clone 1/2 (TCR-017 or TCR-018) reconstituted mouse T-cell hybridomas harboring the NFAT-GFP reporter gene
Assay: NFAT-GFP reporter T-cell hybridomas reconstituted with clone 1/2 TCRαβ, stimulated with synthesized peptide, GFP or CD69
Conditions: 1 μg/ml peptide; APC derived from patient Ts-018; 20 hr after stimulation

SEQ ID NO: 13: amino acid sequence of follicular T cell epitope, essential for activation of clone 1/2 (IAQYTSALL; amino acid sequence of epitope of SARS-CoV-2 for focillar helper T cell)
T cell activation evaluated by the expression of GFP or CD69 (recognition by clone 1/2): essential for activation
